Among the data in ChEMBL document CHEMBL3862004, “A Cyclic Tetrapeptide ("Cyclodal") and Its Mirror-Image Isomer Are Both High-Affinity μ Opioid Receptor Antagonists” (J Med Chem, 2016) are Ke values, retold here.

Protein sequences, listed by entry. Tags and fused reporters are not part of them. Lines headed by an entry give the natural chain unless they say otherwise; changes in a name come on top.
UniProt P41144: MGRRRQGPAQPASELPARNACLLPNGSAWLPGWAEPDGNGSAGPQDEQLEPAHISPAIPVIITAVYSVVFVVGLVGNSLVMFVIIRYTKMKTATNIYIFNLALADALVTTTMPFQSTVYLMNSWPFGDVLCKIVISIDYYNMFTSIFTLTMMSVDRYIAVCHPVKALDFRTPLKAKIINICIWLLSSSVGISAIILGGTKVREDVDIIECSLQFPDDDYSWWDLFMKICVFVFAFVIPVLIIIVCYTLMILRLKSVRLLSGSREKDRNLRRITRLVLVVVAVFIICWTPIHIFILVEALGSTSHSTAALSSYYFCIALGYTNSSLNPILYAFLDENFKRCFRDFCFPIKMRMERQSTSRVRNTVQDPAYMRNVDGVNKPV
UniProt P97266, whole entry: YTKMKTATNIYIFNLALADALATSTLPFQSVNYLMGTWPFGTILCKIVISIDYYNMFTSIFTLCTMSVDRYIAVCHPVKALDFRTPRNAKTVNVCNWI

In test [1] the target is Kappa-type opioid receptor (Cavia porcellus) (UniProt P41144). The test is described as follows: Antagonist activity at KOR in guinea pig ileum assessed as inhibition of U50,488-induced muscle contractions.
Test [2] deals with Mu-type opioid receptor (Cavia porcellus) (UniProt P97266). The test can be described thus: Antagonist activity at MOR in guinea pig ileum assessed as inhibition of TAPP-induced muscle contractions. A digest of the protocol:
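Guinea pig ileum preparation. Each preparation was first run with a [Leu5]enkephalin standard dose–response curve for normalisation. Ke was derived from the ratio of TAPP IC50 with and without a fixed antagonist concentration. Mean of three to four determinations ± SEM.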

As to `CCCC[C@@H]1NC(=O)[C@H](Cc2ccccc2)NC(=O)[C@@H](CCCNC(=N)N)NC(=O)[C@H](Cc2c(C)cc(O)cc2C)NC1=O`, the Ke in test [1] stood at 49.7 nM; in test [2], 15.1 nM.
